Measurements reported in patent US7955808B2, “Bitter taste receptors” (Deutsches Institut für Ernährungsorschung, Stiftung des …, priority 2002, dated 2011).

Chains of the proteins cited; added tags and fusions are not shown.
UniProt P59537, whole entry W35S/H212R: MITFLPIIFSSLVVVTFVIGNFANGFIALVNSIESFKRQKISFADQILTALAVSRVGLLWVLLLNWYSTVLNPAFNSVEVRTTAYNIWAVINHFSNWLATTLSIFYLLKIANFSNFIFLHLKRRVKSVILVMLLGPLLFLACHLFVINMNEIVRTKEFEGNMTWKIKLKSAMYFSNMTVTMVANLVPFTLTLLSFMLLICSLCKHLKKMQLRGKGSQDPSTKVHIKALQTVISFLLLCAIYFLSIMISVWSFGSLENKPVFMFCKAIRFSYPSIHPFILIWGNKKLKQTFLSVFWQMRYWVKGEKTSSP

Target: hTAS2R43 (Homo sapiens, UniProt P59537, H212R/W35S)
Test: cell-based
Source text: These cells stably express a chimeric G protein constructed from human Gα16 and rat gustducin. Finally, we seeded the transfected cells at a density of 3×10^3 cells per well into 96-well black-wall, clear-bottom microtiter plates (Greiner).
Co-transfection of TAS2Rs with gustducin and phospholipase-Cβ2 into HEK-293 cells. Alternatively, we transfected simultaneously plasmid DNAs encoding one of the TAS2Rs, phospholipase-Cβ2 and α-gustducin into HEK-293 cells using the lipofectamine method. […] Thereafter, the transfected cells were seeded at a density of 3×10^3 cells per well into 96-well black-wall, clear-bottom microtiter plates (Greiner).
Thereafter, cells were gently washed in HBS by an automated plate washer (Denley Cellwash, Labsystenms) and transferred to the FLIPR (Molecular Devices). The FLIPR integrates an argon laser excitation source, a 96-well pipettor, and a detection system utilizing a Charged Coupled Device imaging camera. […] Fluorescence data were collected 1 min before and 10 min after stimulation. Data were collected every 6 s before and every 1 s after agonist stimulation. […] Agonist responses were quantified using the amplitudes of the fluorescence peaks. […] Calcium traces were determined in triplicate of mock-transfected cells stimulated with the same concentration of tastant.

O=C1[N-]S(=O)(=O)c2ccccc21.[Na+] [Saccharin]
EC50: 1100 µM
